Tested on: TLR2 induced IL-6 in peripheral blood mononuclear cells (PBMCs)
Experiment: PBMC TLR2 Induced IL-6 Assay
Format: cell-based
Details: Homo sapiens, 5 h, 10 μg/ml lipoteichoic acid for 5 hours, IL-6 by ELISA, values marked * are EC50, read-out: Cell EC50 (values marked *)
Protocol: PBMC TLR2 Induced IL-6 Assay Peripheral blood mononuclear cells (PBMCs) were isolated from human blood containing the anti-coagulant EDTA (2.5 mM) by centrifugation over a FICOLL® gradient. […] At the end of the culture, plates were centrifuged at 1800 rpm for 10 minutes to pellet the cells. Supernatants were harvested and analyzed for IL-6 levels by ELISA (BD Biosciences, San Jose, Calif.).

Row | SMILES | EC50
1 | Cc1cc(C#N)cnc1Nc1cc(NC(C)C)c(C(=O)NC[C@@H](F)C(C)(C)O)cn1 [Example 85] | 62 nM
2 | CC(C)Nc1cc(Nc2ncc(Cl)cc2F)ncc1C(=O)NC[C@@H](F)C(C)(C)O [Example 123] | 45 nM
